Measurements taken from ChEMBL document CHEMBL1152440, “Discovering potent small molecule inhibitors of cyclophilin A using de novo drug design approach” (J Med Chem, 2009).

By UniProt entry, the sequences of proteins in these tests, tags left out.
UniProt P62937, whole entry: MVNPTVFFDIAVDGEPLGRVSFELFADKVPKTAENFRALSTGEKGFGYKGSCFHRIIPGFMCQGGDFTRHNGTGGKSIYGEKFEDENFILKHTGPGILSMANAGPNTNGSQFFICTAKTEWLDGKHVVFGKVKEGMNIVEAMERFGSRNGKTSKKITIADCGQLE

Target: Peptidyl-prolyl cis-trans isomerase A (Homo sapiens, UniProt P62937)

Row | IC50 [nM] | Structure (SMILES)
1 | > 10000 | O=C(NC(=O)c1c(O)cccc1O)Nc1cccc2ccccc12
2 | 1.52 | O=C(NC(=O)c1c(F)cccc1Cl)NC1c2ccccc2-c2ccccc21
3 | 103 | O=C(NC(=O)c1ccccc1Cl)NC1c2ccccc2-c2ccccc21
4 | 2.59 | O=C(NC(=O)c1c(Cl)cccc1Cl)NC1c2ccccc2-c2ccccc21
5 | > 10000 | O=C(NC(=O)c1c(O)cccc1O)NC1CCc2ccccc21 (stereo unspecified)
6 | 1910 | CSc1cccc(F)c1C(=O)NC(=O)NC1c2ccccc2-c2ccccc21
